Legend:
Assay type in all cases: physicochemical
[1] = Drug release from coated surfaces and extruded cylinders in PBS at 37 C, monitored by HPLC; conditions: drop coated from DCM onto glass vial; PBS at 37 C with buffer changes
Source text: As stated herein, “t50” is the time at which 50% of the releasable drug has been released from a surface coating or drug depot of the disclosure. Time t10 is, correspondingly, the time at which 10% of the releasable drug has been released from a surface coating or drug depot of the disclosure. When the release curve is perfectly linear, t10=⅕ of t50. When there is an initial burst of released drug, t10 is much less than ⅕ of t50. In the compositions and methods of the disclosure t10 can be equal to or greater than 1/10 of t50. Drug release from a surface coating, drug depot, or compound of the disclosure can be measured at 37° C. in 100% bovine serum, or at 37° C. in PBS (phosphate buffered saline), as described in Example 1. […]
Compound 2 was dissolved in DCM and was drop coated onto the bottom of a glass vial and solvent was evaporated to form the surface coating. Drug release was carried out in PBS at 37 C with buffer changes and was monitored by HPLC.
Compound 3 was dissolved in DCM and was drop coated onto the bottom of a glass vial and solvent was evaporated to form the surface coating. Drug release was carried out in PBS at 37 C with buffer changes and was monitored by HPLC. […]

[2] = Coating retention / drug release from coated substrates in 100% FBS at 37 C, HPLC; conditions: drop coated on substrate (7 mm^2), agitation
Protocol: Compound 1 was drop coated with the same total amount of compound 1 from an organic solution (acetone) onto SIBS films, Dacron films, and fibrous Dacron meshes, and drug release was carried out in 100% FBS at 37 C. The coating was extracted from the substrates at different time points and was plotted as a percentage of coating retained over time (FIG. 4).
Substrates coated with Compound 1 by drop coating or spray coating were incubated in fetal bovine serum (FBS) to determine the amount of Compound 1 retained over time. Each coated substrate was placed in a glass vial containing 4 mL FBS and incubated at 37° C. on a rotating platform. After 1 to 4 days, the remaining coating was extracted and was determined by HPLC (FIG. 9). The amount of Compound 1 retained following 1-day incubation in FBS ranged from 15 to 100% of the initial amount loaded and roughly correlated with thickness (total loading) of the coating.
To study the drug release from coated surfaces, Compound 4 was drop coated on a substrate (surface area of 7 mm^2) and solvent was evaporated to form the surface coating. Drug release was carried out in 100% FBS and agitation at 37 C with buffer changes and was monitored by HPLC.

[3] = In vitro drug release profiles from coated discs; conditions: coated discs (FIG. 18B)

| Substance | Cumulative drug release from the coated surface [1] | Cumulative drug release from the coated surface [2] | In vitro drug release profile [3] |
| --- | --- | --- | --- |
| triamcinolone acetonide-triethylene glycol-triamcinolone acetonide [Compound 3] | consistent drug release |  |  |
| dexamethasone-hexane-dexamethasone [Compound 4] |  | consistent drug release | sustained release |
